Apparent affinities of Ab-14 variants for a coronavirus HR2 peptide

Reference: Engelhart et al. 2022, doi:10.1038/s41597-022-01779-4. File: FLAb, binding data.

The target is the same throughout: PDVDLGDISGINAS, from the HR2 region of SARS-CoV-2 spike.

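The library (AAYL49) carries one to three amino acid substitutions per variant, with no insertions or deletions. The assay is AlphaSeq: two haploid yeast populations carry antibody and antigen on their surface. Pairs that bind mate more often; barcode pairs of the diploids are counted by sequencing. Each replicate has its own calibration line, from reference interactions of the BCL2 family. Mating was done three times.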

Each scFv is VH, a 15-residue (Gly4Ser)3 linker, VL, as in the parent Ab-14, and differs from it in the CDRs of the heavy chain only.
VH: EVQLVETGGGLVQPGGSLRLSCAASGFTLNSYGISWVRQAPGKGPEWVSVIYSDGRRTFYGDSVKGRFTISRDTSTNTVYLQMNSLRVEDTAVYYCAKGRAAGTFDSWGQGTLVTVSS
VL: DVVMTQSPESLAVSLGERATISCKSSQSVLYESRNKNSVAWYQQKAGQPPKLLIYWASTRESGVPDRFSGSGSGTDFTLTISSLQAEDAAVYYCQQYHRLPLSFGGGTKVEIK

Each variant is given by its three heavy chain CDRs, as the data file delimits them; those of the parent are GFTLNSYGIS, VIYSDGRRTFYGDSVK, GRAAGTFDS.
Scale: log10 of Kd in nM, estimated from mating counts; low values are strong binders.
Averages over replicates are reported, and they cover detected replicates only.
An entry "nd" has no value in the source: the pair was not observed among the diploids in that replicate. This suggests poor binding but is not conclusive.
In this assay the parent's reference entry averaged 0.65; its copy inside this library read 4.11 (one replicate of three).
Nonspecific signal, from three strains lacking the peptide, appeared in 15% of pairings of library AAYL49, centred on 4.06 (5% of these signals below 2.83); values are not corrected for it. For each scFv, signals with the empty controls are counted beside the result, with their mean in brackets.

CDR-H1	CDR-H2	CDR-H3	log10 Kd (nM) by replicate	mean, log10 nM	control signals
GFTFNSYGIS	VIYSDGRDTFYGDSVK	GRAAGVFDS	nd / nd / nd	nd	1/9 (2.90)
GFTLNSYGVS	AIYSDGRRTFYGDSVK	GRAAGTFDS	nd / 3.86 / nd	3.86	2/9 (4.63)
GFTKNSAGIS	VIYSDGRRTFYGDSVK	GRAAGTADS	nd / nd / nd	nd	1/9 (4.87)
GFTLNSLGIS	VIYSDGRRTFYKQSVK	GRAAGTFDS	nd / 3.82 / 2.81	3.32	0/9
GFELNSYPIS	VIYSDGRRTFYGDSVK	GRAAGTFDQ	nd / nd / nd	nd	0/9
GFELNSYGIS	VIYSDGTRTFYGDSVK	GRAAGTFDS	0.84 / 1.09 / 1.00	0.98	4/9 (4.49)
GFTLNSYGIS	HIYSDGRRTFYGDSVK	GRALHTFDS	nd / nd / nd	nd	1/9 (4.41)
GFTLNSYGIS	VIYSDGRRTVYGDSVK	GRAAGTTFS	nd / nd / nd	nd	1/9 (3.79)
GFTLESYGDS	VIYSDGRRTFPGDSVK	GRAAGTFDS	nd / nd / nd	nd	1/9 (2.74)
GFTLNSYGMS	VIYSDGRRGFYGDSVK	GRAQGTFDS	nd / nd / nd	nd	0/9
GQTLNRYGIS	VIYSDGRRTFEGDSVK	GRAAGTFDS	nd / nd / nd	nd	0/9
GFTLNSYGIS	VILSDTRRTFYGDSVK	GRAFGTFDS	nd / nd / nd	nd	0/9
HFTHCSYGIS	VIYSDGRRTFYGDSVK	GRAAGTFDS	4.74 / nd / 4.74	4.74	4/9 (4.67)
GFVLNSYIIS	VIYSDGRRTFYGDSVK	GRAAGTFIS	3.74 / 2.71 / nd	3.22	1/9 (3.74)
GFTLNSMGIS	VIYSDGRRTFWGDSVK	GRAAGQFDS	nd / nd / nd	nd	1/9 (4.30)
GFTLNSYGIS	VFYSDGRRTFWGNSVK	GRAAGTFDS	nd / nd / nd	nd	0/9
GFTLNSYGIS	VIYSDGRRRFNGDSVK	GRAAGTFTS	nd / 3.49 / nd	3.49	1/9 (3.37)
GFTLNSYGIS	VIYSDWRRTFDGDSVK	GRAAGTFDS	nd / nd / nd	nd	1/9 (3.30)
GFELNSYGIS	GIYSDGRRTFYGDQVK	GRAAGTFDS	nd / nd / nd	nd	3/9 (4.43)
GFTLNSEGIS	VIYSDGRRTFYGDSVK	GRAAGDFDS	nd / nd / 3.80	3.80	3/9 (4.82)
GFLLNSYGIS	VIYSDGRRTFYGQSVK	GRMAGTFDS	2.23 / 2.27 / 1.99	2.16	0/9
GFTLNSYGIS	VYYSDHRRTFYGDSVK	GRAAGTFDP	nd / nd / 4.78	4.78	0/9
GFTLNSYGIS	VIYSDGRCEFYGDSVK	GRAAGCFDS	4.26 / 4.45 / 6.76	5.16	8/9 (4.24)
GFTLNSYGIS	VIYSDGGRTFYGDSVK	GRAACTFDS	nd / 4.68 / nd	4.68	3/9 (3.74)
GFTLNSYGID	VIYSDGRRTFYGDSVK	GDAAGTFDS	nd / nd / nd	nd	0/9
GSILNSYGIS	VIRSDGRRTFYGDSVK	GRAAGTFDS	nd / nd / nd	nd	0/9
GFTLNSYGIS	VINSDGWRTFYGDSVK	GRAAGTFDS	nd / nd / 3.41	3.41	0/9
GFTCNSYGIS	VIYSDGRNTQYGDSVK	GRAAGTFDS	nd / nd / nd	nd	3/9 (3.88)
GFTLNSYGIS	VIYSDGRRTFMGDSVK	GRIKGTFDS	nd / nd / nd	nd	0/9
IFTLNSYGIS	VIYSDGRRTFYGDSVK	GRAAGTFDS	2.70 / 2.40 / 3.18	2.76	1/9 (3.33)
GFTLNSYGIS	VGYSDMRRTYYGDSVK	GRAAGTFDS	4.78 / nd / nd	4.78	0/9
GFTLNSYGIS	FIYSDGRRTFCGDSVK	GRAAGTFSS	nd / nd / nd	nd	1/9 (3.52)
GFTLDSYGCS	VIYSDGRRTFYGDSVK	GREAGTFDS	1.93 / 1.69 / 1.58	1.73	4/9 (4.13)
GFTLNSYGWS	VIYSDGRRTSYGDSVD	GRAAGTFDS	nd / nd / nd	nd	0/9
GFTLNSEGIS	VIYSDGRRTFYGDSVK	GRLAGTIDS	nd / nd / nd	nd	0/9
GFTYNSYGSS	VIYSDGRRTFYGDSVK	GRAAGTFWS	nd / 4.83 / 3.84	4.33	5/9 (4.54)
GFTLCSYGIS	VIHSDGRRTFYGESVK	GRAAGTFDS	2.80 / nd / nd	2.80	1/9 (3.24)
AYTLNSYGIS	VIYSDGRRTFQGDSVK	GRAAGTFDS	nd / nd / nd	nd	1/9 (3.88)
GFTLNSYGIS	VIYSDGERTFYVDSVK	GRAPGTFDS	1.25 / 1.93 / 1.71	1.63	0/9
GFTLNSYGIS	VIYNDGRATFYGDSVK	GRAACTFDS	3.67 / 4.32 / 4.53	4.17	8/9 (4.26)
GFTLNFYGIS	VIYSDGRRTFTGDSVK	GRAAGTFDS	2.78 / nd / nd	2.78	0/9
GFTLNSYGIM	NIYSDGRRTFYGDSVK	GRAAGTFDS	5.69 / nd / nd	5.69	1/9 (3.01)
GFTLNFYGIS	VIYSDVRRTPYGDSVK	GRAAGTFDS	nd / nd / nd	nd	0/9
GFTLNSYGIS	VIYSDGHRVFYGDSVK	GRAAGTFDS	0.83 / 0.96 / 0.77	0.86	1/9 (4.06)
GFTLNSYGIS	VIISDGRRPFYGDSVK	GRAAGTFDS	3.64 / nd / nd	3.64	1/9 (4.41)
GFTLNSYGTS	VLYSDGRRTFYLDSVK	GRAAGTFDS	3.10 / 2.35 / nd	2.73	0/9
GFTLNSYGIS	VIYSDGRNTYYGDSVK	GRAAGLFDS	nd / nd / nd	nd	0/9
GFTLNSYGIS	VIYSDGRRTFYGDQVK	GRAAETPDS	3.90 / nd / nd	3.90	0/9
GFTLNSYGID	VQYSDGRRTFYGDSVK	GRQAGTFDS	nd / 3.88 / nd	3.88	3/9 (4.64)
GFTLNSYGIS	VIYSDGRRTTYGDSVK	GHAAGTFDS	2.37 / 2.37 / 2.92	2.55	2/9 (4.63)

The 6 strongest on average among those seen in every replicate, once more:

CDR-H1	CDR-H2	CDR-H3	log10 Kd (nM) by replicate	mean, log10 nM	control signals
GFTLNSYGIS	VIYSDGHRVFYGDSVK	GRAAGTFDS	0.83 / 0.96 / 0.77	0.86	1/9 (4.06)
GFELNSYGIS	VIYSDGTRTFYGDSVK	GRAAGTFDS	0.84 / 1.09 / 1.00	0.98	4/9 (4.49)
GFTLNSYGIS	VIYSDGERTFYVDSVK	GRAPGTFDS	1.25 / 1.93 / 1.71	1.63	0/9
GFTLDSYGCS	VIYSDGRRTFYGDSVK	GREAGTFDS	1.93 / 1.69 / 1.58	1.73	4/9 (4.13)
GFLLNSYGIS	VIYSDGRRTFYGQSVK	GRMAGTFDS	2.23 / 2.27 / 1.99	2.16	0/9
GFTLNSYGIS	VIYSDGRRTTYGDSVK	GHAAGTFDS	2.37 / 2.37 / 2.92	2.55	2/9 (4.63)